Measured values taken from US20020091262A1, “Substituted aryl or heteroarylamides having retinoid-like biological activity” (Allergan, priority 1995, published 2002).

By UniProt entry, the sequences of proteins in these tests, tags left out.
UniProt P10276, whole entry, species assumed: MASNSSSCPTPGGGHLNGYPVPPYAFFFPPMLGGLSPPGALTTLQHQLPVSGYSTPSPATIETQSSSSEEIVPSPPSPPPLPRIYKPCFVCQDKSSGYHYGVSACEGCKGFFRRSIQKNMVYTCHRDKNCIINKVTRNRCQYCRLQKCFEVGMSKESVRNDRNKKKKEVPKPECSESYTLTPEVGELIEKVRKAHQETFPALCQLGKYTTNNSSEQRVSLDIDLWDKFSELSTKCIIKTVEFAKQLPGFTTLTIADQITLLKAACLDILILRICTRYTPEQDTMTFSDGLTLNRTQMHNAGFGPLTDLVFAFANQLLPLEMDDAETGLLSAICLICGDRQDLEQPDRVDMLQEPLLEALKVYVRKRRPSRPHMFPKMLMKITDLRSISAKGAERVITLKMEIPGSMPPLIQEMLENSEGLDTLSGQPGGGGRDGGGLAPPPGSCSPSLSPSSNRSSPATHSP
UniProt P10826, whole entry, species assumed: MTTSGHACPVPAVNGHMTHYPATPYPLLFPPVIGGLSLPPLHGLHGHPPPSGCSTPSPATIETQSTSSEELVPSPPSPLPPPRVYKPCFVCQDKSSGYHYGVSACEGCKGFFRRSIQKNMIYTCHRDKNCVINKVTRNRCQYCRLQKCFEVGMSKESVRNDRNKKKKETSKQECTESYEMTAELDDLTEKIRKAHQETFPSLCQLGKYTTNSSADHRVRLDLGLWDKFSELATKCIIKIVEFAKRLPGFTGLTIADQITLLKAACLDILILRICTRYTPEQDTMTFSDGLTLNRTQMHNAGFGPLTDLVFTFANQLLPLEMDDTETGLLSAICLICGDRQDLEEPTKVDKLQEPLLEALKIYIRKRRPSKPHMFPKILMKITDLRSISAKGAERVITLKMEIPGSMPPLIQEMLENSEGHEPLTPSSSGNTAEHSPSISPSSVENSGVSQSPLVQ
UniProt P13631, whole entry, species assumed: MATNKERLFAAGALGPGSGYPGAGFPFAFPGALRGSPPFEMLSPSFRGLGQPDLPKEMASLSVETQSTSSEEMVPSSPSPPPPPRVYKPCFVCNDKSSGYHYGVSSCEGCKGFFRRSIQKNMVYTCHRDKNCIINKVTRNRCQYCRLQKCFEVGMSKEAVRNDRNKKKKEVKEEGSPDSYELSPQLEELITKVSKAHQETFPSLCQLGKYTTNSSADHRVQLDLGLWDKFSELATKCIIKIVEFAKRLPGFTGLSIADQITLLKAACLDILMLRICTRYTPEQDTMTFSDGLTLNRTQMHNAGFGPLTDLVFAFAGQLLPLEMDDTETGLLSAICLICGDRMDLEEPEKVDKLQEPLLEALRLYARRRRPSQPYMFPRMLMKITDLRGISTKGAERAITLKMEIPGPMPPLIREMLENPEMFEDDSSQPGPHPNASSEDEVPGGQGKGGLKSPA

Legend:
RARα = biological target: T1, RARα (Homo sapiens, UniProt P10276); assay: Ligand binding assay, RARα; conditions: receptor expressed in Baculovirus; [3H] all-trans retinoic acid; Cheng-Prussof from IC50
T1 construct: made in house; used as extract protein
Procedure: (§1) A holoreceptor transactivation assay and a ligand binding assay which measure the ability of the compounds of the invention to bind to the several retinoid receptor subtypes, respectively, are described in published PCT Application No. WO W093/11755 (particularly on pages 30-33 and 37-41) published on Jun. 24, 1993, the specification of which is also incorporated herein by reference. A description of the ligand binding assay is also provided below.
(§2) All binding assays were performed in a similar fashion. All six receptor types were derived from the expressed receptor type (RAR α, β, Γ and RXR α, β, Γ) expressed in Baculovirus. Stock solutions of all compounds were prepared as 10 mM ethanol solutions and serial dilutions carried out into 1:1 DMSO; ethanol. […]
(§3) All receptor biding assays were performed in the same manner. […] The amount of receptor-ligand complex was determined by liquid scintillation counting of hydroxyapitite pellet.
(§4) After correcting for non-specific binding, IC50 values were determined. […] The IC50 value was determined graphically from a loglogit plot of the data. The […] were determined by application of the Cheng-Prussof equation to the IC50 values, the labeled ligand concentration and the Kd of the labeled ligand. […]

RARβ = biological target: T2, RARβ (Homo sapiens, UniProt P10826); assay: Ligand binding assay, RARβ; conditions: receptor expressed in Baculovirus; Cheng-Prussof from IC50
T2 construct: made in house; used as extract protein
Procedure: as §1, §2, §3, §4

RARΓ = biological target: T3, RARΓ (Homo sapiens, UniProt P13631); assay: Ligand binding assay, RARΓ; conditions: receptor expressed in Baculovirus; Cheng-Prussof from IC50
T3 construct: made in house; used as extract protein
Procedure: as §1, §2, §3, §4

## 2-Fluoro-4-[(3′,5′-di-t-butyl)phenylcarbamoyl]benzoic Acid [Compound 6]
RARα
  Kd: 26 nM
RARβ
  Kd: > 1000 nM
RARΓ
  Kd: > 1000 nM
